In patent US6911220B1, “Allogeneic and xenogeneic transplantation” (The General Hospital Corporation, priority 1992, dated 2005):

Tested on: renal allografts in cynomolgus monkeys
Assay: Renal allografts in cynomolgus monkeys with short course of high dose cyclosporine
Type: in vivo, cynomolgus monkey
Conditions: administered on day 8, 9, or 10 of cyclosporine A treatment
Excerpt: “Short course of a help reducing agent”, as used herein, means a transitory non-chronic course of treatment. The treatment should begin before or at about the time of transplantation of the graft. Alternatively, the treatment can begin before or at about the time of the recipient's first exposure to donor antigens. Optimally, the treatment lasts for a time which is approximately equal to or less than the period required for mature T cells of the recipient species to initiate rejection of an antigen after first being stimulated by the antigen. The duration of the treatment can be extended to a time approximately equal to or less than two, three, four, five, or ten times, the period required for a mature T cell of the recipient species to initiate rejection of an antigen after first being stimulated by the antigen. The duration will usually be at least equal to the time required for mature T cells of the recipient species to initiate rejection of an antigen after first being stimulated by the antigen.
This work is discussed in more detail below.
Animals. Cynomolgus monkeys were purchased from Charles River Research Laboratories. The animals were quarantined, tested for a full battery of pathogens, and then housed in environmentally controlled rooms in strict conformance to the N.I.H. Guide for Care and use of Laboratory Animals, in an AAALAC accredited facility.
Typing. […]

“IL-2: cytokine administered during cyclosporine A treatment” was tested, and the “effect on transplanted tissue” value was “rejection of the transplanted tissue”.
